According to patent US11781160B2, “Methods for the production of methacrylates” (priority 2018, dated 2023):

Test system: E. coli BW 25113
Assay: Growth of E. coli BW25113 (wild type) with BMA in M9 minimal medium
Conditions: 0.01% v/v BMA

C=C(C)C(=O)OCCCC [BMA, butyl 2-methylprop-2-enoate]
Growth of E. coli compared with growth in the absence of BMA: very similar to its growth in the absence of BMA
